Reference: patent publication US9751885B2, “Cyclopropanamine compound and use thereof” (Takeda Pharmaceutical Company Limited, priority 2012, dated 2017)

Protein sequences, listed by entry. Tags and fused reporters are not part of them.
UniProt P21397, whole entry: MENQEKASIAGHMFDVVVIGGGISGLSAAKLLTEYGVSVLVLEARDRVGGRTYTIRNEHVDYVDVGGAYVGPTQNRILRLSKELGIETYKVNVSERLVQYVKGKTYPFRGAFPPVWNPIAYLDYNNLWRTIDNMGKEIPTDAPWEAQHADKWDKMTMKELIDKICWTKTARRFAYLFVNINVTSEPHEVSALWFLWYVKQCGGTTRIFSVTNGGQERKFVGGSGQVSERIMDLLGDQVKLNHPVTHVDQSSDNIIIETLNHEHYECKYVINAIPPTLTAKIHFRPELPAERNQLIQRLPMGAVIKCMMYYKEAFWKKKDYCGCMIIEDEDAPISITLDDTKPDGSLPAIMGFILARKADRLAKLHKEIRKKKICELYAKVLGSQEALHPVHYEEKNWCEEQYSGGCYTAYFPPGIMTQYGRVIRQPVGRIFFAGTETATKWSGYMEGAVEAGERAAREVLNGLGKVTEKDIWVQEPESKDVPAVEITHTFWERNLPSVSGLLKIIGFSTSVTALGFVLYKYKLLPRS
UniProt P27338, whole entry: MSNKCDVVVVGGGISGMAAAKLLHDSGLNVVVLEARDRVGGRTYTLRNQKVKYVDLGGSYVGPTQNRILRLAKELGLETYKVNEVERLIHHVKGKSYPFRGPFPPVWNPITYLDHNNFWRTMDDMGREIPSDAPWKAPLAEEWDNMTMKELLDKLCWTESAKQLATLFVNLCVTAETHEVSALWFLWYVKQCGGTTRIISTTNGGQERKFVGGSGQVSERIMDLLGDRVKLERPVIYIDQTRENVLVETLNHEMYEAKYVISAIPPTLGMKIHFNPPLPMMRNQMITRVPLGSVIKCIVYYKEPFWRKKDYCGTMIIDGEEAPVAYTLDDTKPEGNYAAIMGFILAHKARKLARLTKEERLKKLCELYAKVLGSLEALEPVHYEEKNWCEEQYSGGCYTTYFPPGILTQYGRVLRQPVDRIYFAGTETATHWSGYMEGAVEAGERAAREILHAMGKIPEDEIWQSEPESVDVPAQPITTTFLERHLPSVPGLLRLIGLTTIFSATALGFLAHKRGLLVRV

Tests used:
MAO-A enzyme = MAO-A enzyme (Homo sapiens (Human), UniProt P21397); assay: Measurement of MAO-A inhibitory activity (MAO-Glo Assay); type: biochemical
MAO-B enzyme = MAO-B enzyme (Homo sapiens (Human), UniProt P27338); assay: Measurement of MAO-B inhibitory activity (MAO-Glo Assay); conditions: read-out: MAO-B IC50 value;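 further: luminescence read-out, compound preincubated 10 min with enzyme then reacted 60 min at room temperature, inhibition relative to enzyme reaction without compound, blank lacking enzyme and compound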

Compound O=C(NC1CCCC1)c1cccc([C@@H]2C[C@H]2NCC2CC2)c1 (relative stereo) [Example 60, N-cyclopentyl-3-(trans-2-((cyclopropylmethyl)amino)cyclopropyl)benzamide hydrochloride] has an IC50 (MAO-A enzyme) greater than 10 µM and an IC50 (MAO-B enzyme) greater than 10 µM.

N[C@@H]1C[C@H]1c1cccc(C(=O)Nc2cnn(-c3ccc(F)cc3)c2)c1 (relative stereo) [Example 71, 3-(trans-2-aminocyclopropyl)-N-(1-(4-fluorophenyl)-1H-pyrazol-4-yl)benzamide dihydrochloride] gave an IC50 (MAO-A enzyme) of 10 µM and an IC50 (MAO-B enzyme) of 0.39 µM.

Cc1ccc(C(=O)Nc2cnn(C)c2)cc1[C@@H]1C[C@H]1NCC1CC1 (relative stereo) [Example 236, 3-(trans-2-((cyclopropylmethyl)amino)cyclopropyl)-4-methyl-N-(1-methyl-1H-pyrazol-4-yl)benzamide dihydrochloride] was tested, and the IC50 (MAO-A enzyme) was greater than 10 µM and the IC50 (MAO-B enzyme) was greater than 10 µM.

Compound Cn1cc(NC(=O)c2cccc([C@@H]3C[C@H]3NCC3CC3)c2)cn1 (relative stereo) [Example 59, 3-(trans-2-((cyclopropylmethyl)amino)cyclopropyl)-N-(1-methyl-1H-pyrazol-4-yl)benzamide dihydrochloride] has an IC50 (MAO-A enzyme) greater than 10 µM and an IC50 (MAO-B enzyme) greater than 10 µM.

Compound CCn1cc(NC(=O)c2cccc([C@@H]3C[C@H]3NC3CCC(F)(F)CC3)c2)cn1 (relative stereo) [Example 209, 3-(trans-2-((4,4-difluorocyclohexyl)amino)cyclopropyl)-N-(1-ethyl-1H-pyrazol-4-yl)benzamide dihydrochloride] has an IC50 (MAO-A enzyme) greater than 10 µM and an IC50 (MAO-B enzyme) greater than 10 µM.

In the case of N[C@@H]1C[C@H]1c1ccc(F)c(C(=O)NC2CCCC2)c1 (relative stereo) [Example 75, 5-(trans-2-aminocyclopropyl)-N-cyclopentyl-2-fluorobenzamide hydrochloride], the IC50 (MAO-A enzyme) is reported as 8.4 µM and the IC50 (MAO-B enzyme) is reported as greater than 10 µM.

In the case of CCn1cc(NC(=O)c2cccc([C@@H]3C[C@H]3N)c2)cn1 (relative stereo) [Example 74, 3-(trans-2-aminocyclopropyl)-N-(1-ethyl-1H-pyrazol-4-yl)benzamide dihydrochloride], the IC50 (MAO-A enzyme) is reported as greater than 10 µM and the IC50 (MAO-B enzyme) is reported as greater than 10 µM.

Compound O=C(Nc1nccs1)c1cccc([C@@H]2C[C@H]2NCC2CC2)c1 (relative stereo) [Example 138, 3-(trans-2-((cyclopropylmethyl)amino)cyclopropyl)-N-(1,3-thiazol-2-yl)benzamide trifluoroacetate] has an IC50 (MAO-A enzyme) greater than 10 µM and an IC50 (MAO-B enzyme) greater than 10 µM.

Work on COc1ccc([C@@H]2C[C@H]2NC2CCOCC2)cc1C(=O)Nc1nnc(C)s1 (relative stereo) [Example 221, 2-methoxy-N-(5-methyl-1,3,4-thiadiazol-2-yl)-5-(trans-2-(tetrahydro-2H-pyran-4-ylamino)cyclopropyl)benzamide] yielded an IC50 (MAO-B enzyme) greater than 10 µM.

For Cc1nnc(NC(=O)c2cccc([C@@H]3C[C@H]3NCC3CCOCC3)c2)s1 (relative stereo) [Example 112, N-(5-methyl-1,3,4-thiadiazol-2-yl)-3-(trans-2-((tetrahydro-2H-pyran-4-ylmethyl)amino)cyclopropyl)benzamide dihydrochloride], the IC50 (MAO-A enzyme) was greater than 10 µM.

Compound Cn1cc(NC(=O)c2cccc([C@@H]3C[C@H]3NC3CCCC3)c2)cn1 (relative stereo) [Example 172, 3-(trans-2-(cyclopentylamino)cyclopropyl)-N-(1-methyl-1H-pyrazol-4-yl)benzamide dihydrochloride] has an IC50 (MAO-A enzyme) greater than 10 µM.

For NC1CC1c1cccc(C(=O)NC2CCN(CC(F)(F)F)CC2)c1 (stereo not drawn) [Example 251, 3-(trans-2-aminocyclopropyl)-N-(1-(2,2,2-trifluoroethyl)piperidin-4-yl)benzamide dihydrochloride [optical isomer, compound derived from methyl 3-(trans-2-((tert-butoxycarbonyl)amino)cyclopropyl)benzoate (optical isomer, retention time long)]], the IC50 (MAO-B enzyme) was greater than 10 µM.

O=C(NC1CCOCC1)c1cc([C@@H]2C[C@H]2NCC2CC2)ccc1F (relative stereo) [Example 111, 5-(trans-2-((cyclopropylmethyl)amino)cyclopropyl)-2-fluoro-N-(tetrahydro-2H-pyran-4-yl)benzamide hydrochloride] was tested, and the IC50 (MAO-A enzyme) was greater than 10 µM.

Compound NC1CC1c1cccc(C(=O)NC2CCOCC2)c1 (stereo not drawn) [Example 245, 3-(trans-2-aminocyclopropyl)-N-(tetrahydro-2H-pyran-4-yl)benzamide hydrochloride [optical isomer, compound derived from methyl 3-(trans-2-((tert-butoxycarbonyl)amino)cyclopropyl)benzoate (optical isomer, retention time long)]] has an IC50 (MAO-B enzyme) greater than 10 µM.

O=C(NC1CCN(CC(F)(F)F)CC1)c1cccc([C@@H]2C[C@H]2NCC2CC2)c1 (relative stereo) [Example 108, 3-(trans-2-((cyclopropylmethyl)amino)cyclopropyl)-N-(1-(2,2,2-trifluoroethyl)piperidin-4-yl)benzamide dihydrochloride] gave an IC50 (MAO-A enzyme) greater than 10 µM.

Cc1nnc(NC(=O)c2ccc(C)c([C@@H]3C[C@H]3NC3CCOCC3)c2)s1 (relative stereo) [Example 184, 4-methyl-N-(5-methyl-1,3,4-thiadiazol-2-yl)-3-(trans-2-(tetrahydro-2H-pyran-4-ylamino)cyclopropyl)benzamide dihydrochloride] showed an IC50 (MAO-B enzyme) greater than 10 µM.

Cc1cc(NC(=O)c2cccc([C@@H]3C[C@H]3NC3CCC(F)(F)CC3)c2)n(C)n1 (relative stereo) [Example 215, 3-(trans-2-((4,4-difluorocyclohexyl)amino)cyclopropyl)-N-(1,3-dimethyl-1H-pyrazol-5-yl)benzamide dihydrochloride] gave an IC50 (MAO-B enzyme) greater than 10 µM.

Compound Cn1cc(NC(=O)c2cc([C@@H]3C[C@H]3NC3CCC(F)(F)CC3)ccc2F)cn1 (relative stereo) [Example 186, 5-(trans-2-((4,4-difluorocyclohexyl)amino)cyclopropyl)-2-fluoro-N-(1-methyl-1H-pyrazol-4-yl)benzamide hydrochloride] has an IC50 (MAO-B enzyme) greater than 10 µM.

O=C(NC1CCOCC1)c1cccc([C@@H]2C[C@H]2NCC2CC2)c1 (relative stereo) [Example 100, 3-(trans-2-((cyclopropylmethyl)amino)cyclopropyl)-N-(tetrahydro-2H-pyran-4-yl)benzamide hydrochloride] showed an IC50 (MAO-A enzyme) greater than 10 µM.

With CC(C)(C)NC(=O)c1cccc([C@@H]2C[C@H]2NCC2CC2)c1 (relative stereo) [Example 114, N-tert-butyl-3-(trans-2-((cyclopropylmethyl)amino)cyclopropyl)benzamide trifluoroacetate] the IC50 (MAO-B enzyme) was greater than 10 µM.

Cc1nnc(NC(=O)c2cc([C@@H]3C[C@H]3NCC3CC3)ccc2F)s1 (relative stereo) [Example 110, 5-(trans-2-((cyclopropylmethyl)amino)cyclopropyl)-2-fluoro-N-(5-methyl-1,3,4-thiadiazol-2-yl)benzamide dihydrochloride] was tested, and the IC50 (MAO-B enzyme) was greater than 10 µM.

Cn1cc(NC(=O)c2cccc([C@@H]3C[C@H]3NC3CCN(CC(F)(F)F)CC3)c2)cn1 (relative stereo) [Example 171, N-(1-methyl-1H-pyrazol-4-yl)-3-(trans-2-((1-(2,2,2-trifluoroethyl)piperidin-4-yl)amino)cyclopropyl)benzamide trihydrochloride] was tested, and the IC50 (MAO-A enzyme) was greater than 10 µM.

Counter-ions that a name gives are not always drawn.
